Results reported in US5462926A (Biomeasure, Inc., priority 1993, dated 1995).

Amino acid sequences for entries named in this document (tags omitted). A change or cut given only in a name is not applied to a line headed by its entry.
UniProt P52500: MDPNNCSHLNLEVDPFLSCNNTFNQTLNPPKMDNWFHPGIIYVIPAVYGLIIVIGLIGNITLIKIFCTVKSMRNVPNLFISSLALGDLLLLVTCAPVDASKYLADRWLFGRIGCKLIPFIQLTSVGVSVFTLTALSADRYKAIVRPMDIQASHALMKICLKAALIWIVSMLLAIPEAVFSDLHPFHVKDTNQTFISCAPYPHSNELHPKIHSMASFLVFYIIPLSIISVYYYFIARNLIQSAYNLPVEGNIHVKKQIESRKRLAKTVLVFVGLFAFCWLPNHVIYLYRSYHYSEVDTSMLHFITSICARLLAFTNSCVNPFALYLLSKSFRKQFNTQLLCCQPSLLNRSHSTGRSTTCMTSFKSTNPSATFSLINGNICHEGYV

Key:
[1] = biological target: GRP receptors on rat pancreatic acini (Rattus norvegicus, UniProt P52500); assay: Binding of 125I-[Tyr4]bombesin to pancreatic acini; details: read-out: Ki 125I-[Tyr4]Bn Binding, GRP Receptor, Rat Pancreatic Acini, Ki by Cheng method
GRP receptor = GRP receptor (Rattus norvegicus, UniProt P52500); assay: Amylase release from rat pancreatic acini (alone or Bn-stimulated); type: cell-based; details: read-out: IC50 Amylase Release, GRP Receptor, Rat Pancreatic Acini

**Q.** How did the Ki [1] turn out when `C[C@@H](O)[C@H](NC(=O)[C@@H]1CSSC[C@H](NC(=O)[C@H](N)Cc2ccc3ccccc3c2)C(=O)N[C@@H](Cc2ccccc2)C(=O)N[C@H](Cc2c[nH]c3ccccc23)C(=O)N[C@@H](CCCCN)C(=O)N[C@@H]([C@@H](C)O)C(=O)N1)C(N)=O` [Analog #19] was run?
**A.** > 10 µM

**Q.** And the IC50 (GRP receptor)?
**A.** > 10 µM
